Assay results as given in patent publication US20090099157A1, “TETRAHYDRO-PYRAZOLO-PYRIDINE THIOETHER MODULATORS OF CATHEPSIN S” (priority 2007, published 2009).

Sequences of proteins named here, by UniProt entry; tags and fusion partners are left off. Residues count along the entry.
UniProt P25774, 115-331: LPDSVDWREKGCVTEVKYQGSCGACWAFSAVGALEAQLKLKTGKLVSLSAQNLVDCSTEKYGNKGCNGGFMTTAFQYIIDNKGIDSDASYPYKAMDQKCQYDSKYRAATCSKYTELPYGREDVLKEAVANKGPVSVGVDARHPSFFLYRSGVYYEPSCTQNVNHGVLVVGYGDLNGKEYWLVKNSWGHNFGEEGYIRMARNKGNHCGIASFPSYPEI

Biological target: Recombinant human cathepsin S (CatS) (Homo sapiens, UniProt P25774)
Assay: biochemical

Row | IC50 | SMILES
1 | 90 nM | CS(=O)(=O)N1CCc2c(c(-c3ccc(C(F)(F)F)c(SCCN4CCCCC4)c3)nn2CC(O)CN2CCC(c3n[nH]c(=O)[nH]3)CC2)C1 (stereo not drawn) [Example 677, 5-(1-{2-Hydroxy-3-[5-(methylsulfonyl)-3-{3-[(2-piperidin-1-ylethyl)sulfanyl]-4-(trifluoromethyl)phenyl}-4,5,6,7-tetrahydro-1H-pyrazolo[4,3-c]pyridin-1-yl]propyl}piperidin-4-yl)-2,4-dihydro-3H-1,2,4-triazol-3-one]
2 | 45 nM | CS(=O)(=O)N1CCc2c(c(-c3ccc(C(F)(F)F)c(SCCN4CCC(F)CC4)c3)nn2CC(O)CN2CCC(Oc3ncccn3)CC2)C1 (stereo not drawn) [Example 798, 1-{3-[3-{[2-(4-Fluoropiperidin-1-yl)ethyl]sulfanyl}-4-(trifluoromethyl)phenyl]-5-(methylsulfonyl)-4,5,6,7-tetrahydro-1H-pyrazolo[4,3-c]pyridin-1-yl}-3-[4-(pyrimidin-2-yloxy)piperidin-1-yl]propan-2-ol]
3 | 10 nM | COc1ccccc1C1CCN(CC(O)Cn2nc(-c3ccc(C(F)(F)F)c(SCCN4CCCCC4)c3)c3c2CCN(S(C)(=O)=O)C3)CC1 (stereo not drawn) [Example 770, 1-{4-[2-(Methyloxy)phenyl]piperidin-1-yl}-3-[5-(methylsulfonyl)-3-{3-[(2-piperidin-1-ylethyl)sulfanyl]-4-(trifluoromethyl)phenyl}-4,5,6,7-tetrahydro-1H-pyrazolo[4,3-c]pyridin-1-yl]propan-2-ol]
4 | 35 nM | CS(=O)(=O)N1CCc2c(c(-c3ccc(C(F)(F)F)c(SCCN4CCC(F)CC4)c3)nn2CC(O)CN2CCC(O)(c3ccccn3)CC2)C1 (stereo not drawn) [Example 787, 1-(3-{3-[3-{[2-(4-Fluoropiperidin-1-yl)ethyl]sulfanyl}-4-(trifluoromethyl)phenyl]-5-(methylsulfonyl)-4,5,6,7-tetrahydro-1H-pyrazolo[4,3-c]pyridin-1-yl}-2-hydroxypropyl)-4-pyridin-2-ylpiperidin-4-ol]
5 | 2010 nM | CN(CCSc1cc(-c2nn(CCCN3CCC(N4CCCC4=O)CC3)c3c2CN(S(C)(=O)=O)CC3)ccc1C(F)(F)F)Cc1ccccc1 [Example 51, 1-{1-[3-(3-{3-[2-(Benzyl-methyl-amino)-ethylsulfanyl]-4-trifluoromethyl-phenyl}-5-methanesulfonyl-4,5,6,7-tetrahydro-pyrazolo[4,3-c]pyridin-1-yl)-propyl]-piperidin-4-yl}-pyrrolidin-2-one]
6 | 1400 nM | NC(=O)NC1CCN(C[C@H](O)Cn2nc(-c3ccc(C(F)(F)F)c(SCCN4CCC(F)CC4)c3)c3c2CCNC3)CC1 [Example 341, 1-{1-[(2S)-3-{3-[3-{[2-(4-Fluoropiperidin-1-yl)ethyl]sulfanyl}-4-(trifluoromethyl)phenyl]-4,5,6,7-tetrahydro-1H-pyrazolo[4,3-c]pyridin-1-yl}-2-hydroxypropyl]piperidin-4-yl}urea]
7 | 410 nM | CS(=O)(=O)N1CCc2c(c(-c3ccc(C(F)(F)F)c(SCCN4CCC(F)CC4)c3)nn2CC(O)CN2CCC[C@@H](O)C2)C1 (stereo partly drawn) [Example 483, (3R)-1-(3-{3-[3-{[2-(4-Fluoropiperidin-1-yl)ethyl]sulfanyl}-4-(trifluoromethyl)phenyl]-5-(methylsulfonyl)-4,5,6,7-tetrahydro-1H-pyrazolo[4,3-c]pyridin-1-yl}-2-hydroxypropyl)piperidin-3-ol]
8 | 6440 nM | CS(=O)(=O)NC1CCN(CC(O)Cn2nc(-c3ccc(C(F)(F)F)c(SCCN4CCCC(O)C4)c3)c3c2CCNC3)CC1 (stereo not drawn) [Example 463, N-[1-(2-Hydroxy-3-{3-[3-{[2-(3-hydroxypiperidin-1-yl)ethyl]sulfanyl}-4-(trifluoromethyl)phenyl]-4,5,6,7-tetrahydro-1H-pyrazolo[4,3-c]pyridin-1-yl}propyl)piperidin-4-yl]methanesulfonamide]
9 | 180 nM | CC1CCCN(C(=O)CSc2cc(-c3nn(CCCN4CCC(N5CCCC5=O)CC4)c4c3CN(S(C)(=O)=O)CC4)ccc2C(F)(F)F)C1 (stereo not drawn) [Example 79, 1-{1-[3-(5-Methanesulfonyl-3-{3-[2-(3-methyl-piperidin-1-yl)-2-oxo-ethylsulfanyl]-4-trifluoromethyl-phenyl}-4,5,6,7-tetrahydro-pyrazolo[4,3-c]pyridin-1-yl)-propyl]-piperidin-4-yl}-pyrrolidin-2-one]
10 | 70 nM | CS(=O)(=O)N1CCc2c(c(-c3ccc(C(F)(F)F)c(SCCN4CCC(F)CC4)c3)nn2CC(O)CN2CCC(C(=O)N3CCCC3)CC2)C1 (stereo not drawn) [Example 816, 1-{3-[3-{[2-(4-Fluoropiperidin-1-yl)ethyl]sulfanyl}-4-(trifluoromethyl)phenyl]-5-(methylsulfonyl)-4,5,6,7-tetrahydro-1H-pyrazolo[4,3-c]pyridin-1-yl}-3-[4-(pyrrolidin-1-ylcarbonyl)piperidin-1-yl]propan-2-ol]
11 | 2010 nM | CS(=O)(=O)N1CCc2c(c(-c3ccc(C(F)(F)F)c(SCCN4CCC(N5CCCCC5)CC4)c3)nn2CCCN2CCC(N3CCCC3=O)CC2)C1 [Example 870, 1-[1-(3-{3-[3-{[2-(1,4′-Bipiperidin-1′-yl)ethyl]sulfanyl}-4-(trifluoromethyl)phenyl]-5-(methylsulfonyl)-4,5,6,7-tetrahydro-1H-pyrazolo[4,3-c]pyridin-1-yl}propyl)piperidin-4-yl]pyrrolidin-2-one]
12 | 360 nM | CS(=O)(=O)N1CCc2c(c(-c3ccc(C(F)(F)F)c(SCCN4CCCC4)c3)nn2CC(O)CN2CCC(N3CCOCC3)CC2)C1 (stereo not drawn) [Example 646, 1-[5-(Methylsulfonyl)-3-{3-[(2-pyrrolidin-1-ylethyl)sulfanyl]-4-(trifluoromethyl)phenyl}-4,5,6,7-tetrahydro-1H-pyrazolo[4,3-c]pyridin-1-yl]-3-(4-morpholin-4-ylpiperidin-1-yl)propan-2-ol]
13 | 280 nM | CS(=O)(=O)N1CCc2c(c(-c3ccc(C(F)(F)F)c(SCCN4CCCCC4CO)c3)nn2CCCN2CCC(N3CCCC3=O)CC2)C1 (stereo not drawn) [Example 39, 1-{1-[3-(3-{3-[2-(2-Hydroxymethyl-piperidin-1-yl)-ethylsulfanyl]-4-trifluoromethyl-phenyl}-5-methanesulfonyl-4,5,6,7-tetrahydro-pyrazolo[4,3-c]pyridin-1-yl)-propyl]-piperidin-4-yl}-pyrrolidin-2-one]
14 | 60 nM | CC1CCN(CCSc2cc(-c3nn(C[C@@H](O)CN4CCC(C(C)(C)C)CC4)c4c3CN(S(C)(=O)=O)CC4)ccc2C(F)(F)F)CC1 [Example 643, (2S)-1-[4-(1,1-Dimethylethyl)piperidin-1-yl]-3-{3-[3-{[2-(4-methylpiperidin-1-yl)ethyl]sulfanyl}-4-(trifluoromethyl)phenyl]-5-(methylsulfonyl)-4,5,6,7-tetrahydro-1H-pyrazolo[4,3-c]pyridin-1-yl}propan-2-ol]
15 | 60 nM | CC(C)(C)OC(=O)NC1CCN(CCCn2nc(-c3ccc(C(F)(F)F)c(SCC(=O)N4CCOCC4)c3)c3c2CCN(S(C)(=O)=O)C3)CC1 [Example 113, [1-(3-{5-Methanesulfonyl-3-[3-(2-morpholin-4-yl-2-oxo-ethylsulfanyl)-4-trifluoromethyl-phenyl]-4,5,6,7-tetrahydro-pyrazolo[4,3-c]pyridin-1-yl}-propyl)-piperidin-4-yl]-carbamic acid tert-butyl ester]
